The values below come from patent publication US20100105730A1 (H. Lundbeck A/S, priority 2007, published 2010).

Chains of the proteins cited; added tags and fusions are not shown. Residues count along the entry.
UniProt P35563, 24-483: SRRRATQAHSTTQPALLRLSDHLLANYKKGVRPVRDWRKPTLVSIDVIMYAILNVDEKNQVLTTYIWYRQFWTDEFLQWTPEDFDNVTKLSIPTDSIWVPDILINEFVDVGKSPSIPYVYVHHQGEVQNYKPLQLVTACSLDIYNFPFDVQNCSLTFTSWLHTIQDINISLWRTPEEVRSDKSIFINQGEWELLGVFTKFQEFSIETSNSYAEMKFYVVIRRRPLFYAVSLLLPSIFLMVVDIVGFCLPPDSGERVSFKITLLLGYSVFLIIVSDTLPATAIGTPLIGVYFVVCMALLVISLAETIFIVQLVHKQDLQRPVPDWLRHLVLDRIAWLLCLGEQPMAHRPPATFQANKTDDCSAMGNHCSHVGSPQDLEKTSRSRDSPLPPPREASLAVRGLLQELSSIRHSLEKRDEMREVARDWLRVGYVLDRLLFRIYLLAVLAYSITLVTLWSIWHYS

In the test the target is rat-homomeric 5-HT3A receptors (Rattus norvegicus, UniProt P35563). In words: cell-based. On the procedure:
The experiments were carried out as follows. […] Oocytes avoid of the follicle layer were selected and incubated for 24 hours in Modified Barth's Saline buffer [88 mM NaCl, 1 mM KCl, 15 mM HEPES, 2.4 mM NaHCO3, 0.41 mM CaCl2, 0.82 mM MgSO4, 0.3 mM Ca(NO3)2] supplemented with 2 mM sodium pyruvate, 0.1 U/l penicillin and 0.1 μg/l streptomycin. Stage […] oocytes were identified and injected with 12-48 nl of nuclease free water containing 14-50 pg of cRNA coding for human 5-HT3A receptors receptors and incubated at 18° C. until they were used for electrophysiological recordings (1-7 days after injection). […] Cells were impaled with agar plugged 0.5-1 MΩ electrodes containing 3 M KCl and voltage clamped at −90 mV by a GeneClamp 500B amplifier. The oocytes were continuously perfused with Ringer buffer and the drugs were applied in the perfusate.

Molecule `NCCc1c[nH]c2ccc(O)cc12` [5-HT, Serotonin] returned a concentration giving a half-maximal response (EC50) of 3.3 µM.

By EC50 is commonly meant the concentration needed to bring the measured effect to its halfway point.
